## Antibody variant affinities, Ab-14 heavy chain, assay 1

Target: peptide PDVDLGDISGINAS, taken from heptad repeat 2 (HR2) of SARS-CoV-2 spike.

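Phage display of a naive human antibody library on the peptide gave the parent. The library (AAYL49) carries one to three amino acid substitutions per variant, with no insertions or deletions. Affinity was read by AlphaSeq, a pooled yeast mating assay with surface-displayed partners. Binding brings cells together so that they mate, and sequencing counts the barcode pairs among the diploids. Read counts were normalised to the haploid input and turned into Kd by a linear fit to BCL2-family pairs of known affinity, for each replicate. The assay was run in three technical replicates.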

Each scFv is VH, the linker GGGGSGGGGSGGGGS, VL, as in the parent Ab-14, and differs from it in the CDRs of the heavy chain only.
VH: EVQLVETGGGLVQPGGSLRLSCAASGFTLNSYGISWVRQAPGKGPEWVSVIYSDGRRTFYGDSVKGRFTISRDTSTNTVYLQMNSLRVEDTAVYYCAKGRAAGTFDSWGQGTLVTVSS
VL: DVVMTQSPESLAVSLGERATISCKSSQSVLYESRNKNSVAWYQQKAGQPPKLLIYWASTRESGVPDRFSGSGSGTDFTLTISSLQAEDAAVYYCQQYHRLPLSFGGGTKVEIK

Substitutions are numbered in sequence along the VH above, starting at 1 (not Kabat).
This list gathers variants with a substitution at F27 (VH, numbered from residue 1).
Kd is apparent (estimated from mating counts) and averaged on the log scale over replicates with a signal. Smaller is tighter.
Where no diploid with the target was found in any replicate, the entry reads "no signal": below detection, most likely a poor binder, though not proof of it.
Empty control strains, which show no peptide, gave a signal in 15% of pairings with library AAYL49; the median was 11 µM and 95% of these signals were weaker than 680 nM. No background was subtracted. The control count says in how many pairings with the empty strains this scFv gave a signal.
Parent in this assay: reference entry 4.4 nM, copy in this library 13 µM (one replicate of three).

The variant F27C+D54L+V64M showed 4.2 µM (1 of 3 replicates; controls 1 of 9). For F27Y, the assay gave 48 nM (3 of 3 replicates; controls 1 of 9). For F27V+S53A, the assay gave 2.6 nM (3 of 3 replicates; controls 1 of 9). With G26L+F27S+Y32G the result was 6.0 µM (1 of 3 replicates; controls 1 of 9). For F27N+Y32F+G103M, the assay gave no signal (0 of 3 replicates; controls 0 of 9). The variant F27P+S31R+T104L showed 30 µM (1 of 3 replicates; controls 0 of 9).

For F27K+F105C+D106M, the assay gave no signal (0 of 3 replicates; controls 2 of 9). The variant F27K+R57N gave no signal (0 of 3 replicates; controls 1 of 9). For F27I+S35Q+D54A, the assay gave 8.4 µM (2 of 3 replicates; controls 0 of 9). For F27M+S107G, the assay gave 700 nM (1 of 3 replicates; controls 0 of 9). With F27Y+R56Y+K65A the result was 11 µM (1 of 3 replicates; controls 1 of 9). For G26R+F27D+R57H, the assay gave 34 nM (1 of 3 replicates; controls 0 of 9).

The variant F27Q+G103L+F105M showed 4.2 µM (2 of 3 replicates; controls 3 of 9). The variant F27T+Y52S+V64L showed 8.8 µM (2 of 3 replicates; controls 2 of 9). With F27Y+S63A the result was 160 nM (3 of 3 replicates; controls 2 of 9). With F27T+G33N+G61N the result was no signal (0 of 3 replicates; controls 0 of 9). The variant F27E+R56F+Y60P showed no signal (0 of 3 replicates; controls 1 of 9). With F27A+S31D+Y60I the result was 15 µM (2 of 3 replicates; controls 7 of 9).

For F27G+N30V, the assay gave no signal (0 of 3 replicates; controls 0 of 9). With F27M+N30K+R100M the result was 48 nM (3 of 3 replicates; controls 2 of 9). For F27G+G33S+R57P, the assay gave 18 µM (1 of 3 replicates; controls 2 of 9). The variant F27D+R57A+Y60N showed 6.4 µM (1 of 3 replicates; controls 2 of 9). The variant F27P+R56Q+T58A showed 350 nM (3 of 3 replicates; controls 2 of 9). For F27S+S63K, the assay gave 14 nM (3 of 3 replicates; controls 0 of 9).

For F27W+R56W+D62Y, the assay gave no signal (0 of 3 replicates; controls 0 of 9). The variant F27C+S53W+F59C showed no signal (0 of 3 replicates; controls 1 of 9). The variant F27N+S35E+V64Y showed no signal (0 of 3 replicates; controls 1 of 9). For F27Y+S35V+Y60N, the assay gave no signal (0 of 3 replicates; controls 1 of 9). For F27Q+Y52L+S107T, the assay gave 71 µM (1 of 3 replicates; controls 0 of 9). The variant F27R+G55W+R57Q gave 16 µM (2 of 3 replicates; controls 7 of 9).

The variant F27L+N30Y+I34V showed no signal (0 of 3 replicates; controls 0 of 9). With F27Y+D54T+G61P the result was no signal (0 of 3 replicates; controls 0 of 9). The variant F27R+G55S+A102G gave 350 nM (1 of 3 replicates; controls 0 of 9). With G26H+F27W+R100T the result was 640 µM (1 of 3 replicates; controls 2 of 9). With F27K+G61E+S63F the result was no signal (0 of 3 replicates; controls 0 of 9). For F27C+I51R+K65F, the assay gave no signal (0 of 3 replicates; controls 2 of 9).

The variant F27I+K65W+D106R showed 650 nM (3 of 3 replicates; controls 2 of 9). The variant F27K+L29A gave 460 nM (3 of 3 replicates; controls 1 of 9). The variant F27I+G33N+R56E showed 8.5 µM (2 of 3 replicates; controls 5 of 9). The variant F27V+G33F+V50I gave no signal (0 of 3 replicates; controls 0 of 9). For F27E+T28G+F59M, the assay gave 450 nM (3 of 3 replicates; controls 1 of 9). For F27T+N30D+G103L, the assay gave no signal (0 of 3 replicates; controls 0 of 9).

For F27V+N30E+Y52N, the assay gave no signal (0 of 3 replicates; controls 0 of 9). For F27M+T58N+F59P, the assay gave no signal (0 of 3 replicates; controls 1 of 9). With F27S+R56G+D106N the result was 4.7 µM (2 of 3 replicates; controls 1 of 9). For F27T+D62W+D106A, the assay gave 2.2 µM (1 of 3 replicates; controls 2 of 9). For F27V+T58D+D62S, the assay gave no signal (0 of 3 replicates; controls 0 of 9). The variant F27S+L29T+G99S gave 420 nM (1 of 3 replicates; controls 2 of 9).

The variant F27R+T58R+T104E gave 71 nM (1 of 3 replicates; controls 1 of 9). With F27W+G99S+R100D the result was 900 nM (3 of 3 replicates; controls 3 of 9).

For reference, 6 entries of the list once more:

changes	Kd	detected	control signals
F27E+T28G+F59M	450 nM	3 of 3	1 of 9
F27L+N30Y+I34V	no signal	0 of 3	0 of 9
F27Q+Y52L+S107T	71 µM	1 of 3	0 of 9
F27E+R56F+Y60P	no signal	0 of 3	1 of 9
F27C+I51R+K65F	no signal	0 of 3	2 of 9
F27A+S31D+Y60I	15 µM	2 of 3	7 of 9

Data: MIT Lincoln Laboratory AlphaSeq set, Engelhart et al. 2022, doi:10.1038/s41597-022-01779-4, as distributed in FLAb.